Laboratory results reported in article PMC4619679.

Target: T1, Full-length human Dnmt1 (human), P26358
T1 chain: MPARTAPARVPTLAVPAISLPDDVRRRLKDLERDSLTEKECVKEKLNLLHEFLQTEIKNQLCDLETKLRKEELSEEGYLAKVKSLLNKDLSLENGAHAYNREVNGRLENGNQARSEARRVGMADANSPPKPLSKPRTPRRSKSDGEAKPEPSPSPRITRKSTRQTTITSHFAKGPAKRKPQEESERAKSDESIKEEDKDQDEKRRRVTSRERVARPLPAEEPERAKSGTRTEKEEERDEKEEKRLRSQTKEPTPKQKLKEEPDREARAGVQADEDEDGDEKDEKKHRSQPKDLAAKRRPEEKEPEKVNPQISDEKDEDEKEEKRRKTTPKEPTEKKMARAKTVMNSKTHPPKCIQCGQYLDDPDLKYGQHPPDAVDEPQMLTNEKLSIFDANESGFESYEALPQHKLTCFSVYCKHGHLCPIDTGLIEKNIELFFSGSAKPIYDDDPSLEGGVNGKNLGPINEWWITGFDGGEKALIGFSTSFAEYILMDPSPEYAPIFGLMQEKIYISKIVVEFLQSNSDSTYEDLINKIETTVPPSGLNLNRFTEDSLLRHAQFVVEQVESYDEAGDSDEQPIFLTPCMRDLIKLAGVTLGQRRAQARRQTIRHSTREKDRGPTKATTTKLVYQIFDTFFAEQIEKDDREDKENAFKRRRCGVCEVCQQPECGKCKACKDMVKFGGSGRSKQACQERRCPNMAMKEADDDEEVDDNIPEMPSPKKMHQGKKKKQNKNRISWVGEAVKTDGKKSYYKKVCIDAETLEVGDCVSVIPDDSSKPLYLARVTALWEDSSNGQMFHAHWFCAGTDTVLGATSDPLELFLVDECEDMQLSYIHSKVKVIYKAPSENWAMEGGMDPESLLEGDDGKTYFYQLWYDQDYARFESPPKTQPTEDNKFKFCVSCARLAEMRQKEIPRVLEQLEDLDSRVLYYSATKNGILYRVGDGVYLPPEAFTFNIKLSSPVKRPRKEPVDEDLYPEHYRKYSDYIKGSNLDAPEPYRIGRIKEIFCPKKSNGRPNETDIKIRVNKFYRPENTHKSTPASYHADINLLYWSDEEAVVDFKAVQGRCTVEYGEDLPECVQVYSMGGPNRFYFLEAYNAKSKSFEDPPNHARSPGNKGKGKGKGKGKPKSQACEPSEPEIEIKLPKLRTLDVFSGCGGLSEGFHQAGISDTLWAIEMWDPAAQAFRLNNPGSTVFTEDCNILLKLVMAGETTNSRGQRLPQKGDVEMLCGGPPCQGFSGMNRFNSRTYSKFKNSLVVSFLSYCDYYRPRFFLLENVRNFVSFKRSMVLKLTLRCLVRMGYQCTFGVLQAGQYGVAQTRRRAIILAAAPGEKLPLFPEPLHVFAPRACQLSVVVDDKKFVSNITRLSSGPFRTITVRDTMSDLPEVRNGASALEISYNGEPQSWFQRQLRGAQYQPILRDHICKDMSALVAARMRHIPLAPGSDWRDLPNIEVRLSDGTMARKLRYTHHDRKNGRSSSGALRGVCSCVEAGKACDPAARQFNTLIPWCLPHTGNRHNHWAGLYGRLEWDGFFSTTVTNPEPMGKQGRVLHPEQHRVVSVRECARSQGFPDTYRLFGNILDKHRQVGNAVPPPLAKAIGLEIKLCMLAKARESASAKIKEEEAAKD
Experiment: SEC; gelfiltration chromatography of recombinant Dnmt1 under different running conditions; compared with Dnmt1 denatured by SDS and heat, which gave forms of the apparent mass of a monomer
Details: remark: other sources report otherwise

B1: Full-length human Dnmt1, P26358 1-1616 (enzyme)
chain: MPARTAPARVPTLAVPAISLPDDVRRRLKDLERDSLTEKECVKEKLNLLHEFLQTEIKNQLCDLETKLRKEELSEEGYLAKVKSLLNKDLSLENGAHAYNREVNGRLENGNQARSEARRVGMADANSPPKPLSKPRTPRRSKSDGEAKPEPSPSPRITRKSTRQTTITSHFAKGPAKRKPQEESERAKSDESIKEEDKDQDEKRRRVTSRERVARPLPAEEPERAKSGTRTEKEEERDEKEEKRLRSQTKEPTPKQKLKEEPDREARAGVQADEDEDGDEKDEKKHRSQPKDLAAKRRPEEKEPEKVNPQISDEKDEDEKEEKRRKTTPKEPTEKKMARAKTVMNSKTHPPKCIQCGQYLDDPDLKYGQHPPDAVDEPQMLTNEKLSIFDANESGFESYEALPQHKLTCFSVYCKHGHLCPIDTGLIEKNIELFFSGSAKPIYDDDPSLEGGVNGKNLGPINEWWITGFDGGEKALIGFSTSFAEYILMDPSPEYAPIFGLMQEKIYISKIVVEFLQSNSDSTYEDLINKIETTVPPSGLNLNRFTEDSLLRHAQFVVEQVESYDEAGDSDEQPIFLTPCMRDLIKLAGVTLGQRRAQARRQTIRHSTREKDRGPTKATTTKLVYQIFDTFFAEQIEKDDREDKENAFKRRRCGVCEVCQQPECGKCKACKDMVKFGGSGRSKQACQERRCPNMAMKEADDDEEVDDNIPEMPSPKKMHQGKKKKQNKNRISWVGEAVKTDGKKSYYKKVCIDAETLEVGDCVSVIPDDSSKPLYLARVTALWEDSSNGQMFHAHWFCAGTDTVLGATSDPLELFLVDECEDMQLSYIHSKVKVIYKAPSENWAMEGGMDPESLLEGDDGKTYFYQLWYDQDYARFESPPKTQPTEDNKFKFCVSCARLAEMRQKEIPRVLEQLEDLDSRVLYYSATKNGILYRVGDGVYLPPEAFTFNIKLSSPVKRPRKEPVDEDLYPEHYRKYSDYIKGSNLDAPEPYRIGRIKEIFCPKKSNGRPNETDIKIRVNKFYRPENTHKSTPASYHADINLLYWSDEEAVVDFKAVQGRCTVEYGEDLPECVQVYSMGGPNRFYFLEAYNAKSKSFEDPPNHARSPGNKGKGKGKGKGKPKSQACEPSEPEIEIKLPKLRTLDVFSGCGGLSEGFHQAGISDTLWAIEMWDPAAQAFRLNNPGSTVFTEDCNILLKLVMAGETTNSRGQRLPQKGDVEMLCGGPPCQGFSGMNRFNSRTYSKFKNSLVVSFLSYCDYYRPRFFLLENVRNFVSFKRSMVLKLTLRCLVRMGYQCTFGVLQAGQYGVAQTRRRAIILAAAPGEKLPLFPEPLHVFAPRACQLSVVVDDKKFVSNITRLSSGPFRTITVRDTMSDLPEVRNGASALEISYNGEPQSWFQRQLRGAQYQPILRDHICKDMSALVAARMRHIPLAPGSDWRDLPNIEVRLSDGTMARKLRYTHHDRKNGRSSSGALRGVCSCVEAGKACDPAARQFNTLIPWCLPHTGNRHNHWAGLYGRLEWDGFFSTTVTNPEPMGKQGRVLHPEQHRVVSVRECARSQGFPDTYRLFGNILDKHRQVGNAVPPPLAKAIGLEIKLCMLAKARESASAKIKEEEAAKD
stoichiometry N: 2
